This is a selection; strong and weak results do not stand in their true shares. Calls of active or inactive are those of the source.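 Rule for the calls: active = ratio B-score over 3 SD below the library mean, with starting fluorescence within 5 SD of its mean; inactive = the rest, inconclusive results apart.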
target: Potassium channel subfamily K member 9 (Homo sapiens) (UniProt Q9NPC2); assay: KCNK9 potassium channel inhibitors, primary screen, HEK293 cells, thallium flux (AID 488922); settings: HEK293 KCNK9, FluxOR thallium flux fluorescence; at 10 µM

The chains behind the UniProt entries cited, without tags or fusion partners.
UniProt Q9NPC2, whole entry: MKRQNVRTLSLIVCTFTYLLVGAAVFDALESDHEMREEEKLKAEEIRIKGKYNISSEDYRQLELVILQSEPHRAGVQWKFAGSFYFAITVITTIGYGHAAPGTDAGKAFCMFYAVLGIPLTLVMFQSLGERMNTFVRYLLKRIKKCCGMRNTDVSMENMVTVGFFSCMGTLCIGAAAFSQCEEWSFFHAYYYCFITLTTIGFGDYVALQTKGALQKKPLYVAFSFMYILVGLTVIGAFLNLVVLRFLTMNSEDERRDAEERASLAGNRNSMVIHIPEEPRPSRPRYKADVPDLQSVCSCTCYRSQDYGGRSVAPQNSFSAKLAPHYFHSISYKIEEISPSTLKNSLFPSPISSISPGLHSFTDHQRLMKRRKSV

SMILES	outcome
CCCCOc1ccc(C(=O)NCC2(N3CCCCC3)CCCCC2)cc1OC	inactive
CCOC(=O)Nc1ccc([As](=O)(O)O)c(O)c1	inactive
CCC(C)N(CC(C)C)C(=S)SC(NC(C)=O)C(Cl)(Cl)Cl (stereo not given)	inactive
CP(=O)(Nc1ccccn1)Oc1ccc(Cl)cc1 (stereo not given)	inactive
O=C(OC1CN2CCC1CC2)c1cccc([N+](=O)[O-])c1 (stereo not given)	inactive
CCOP(C)(=S)SCC(=O)NC(C)C(=O)O (stereo not given)	inactive
O=[N+]([O-])c1cc([N+](=O)[O-])c(O)c([N+](=O)[O-])c1.c1ccc(Oc2ccncc2)cc1	inactive
CCOC(=O)c1ccc(NP(C)(=O)Oc2ccc(OC)cc2)cc1 (stereo not given)	inactive
CCOC(=O)c1ccc(NC(=O)C(C)(CCl)SC)cc1 (stereo not given)	inactive
Cc1cc(C)cc(OP(C)(=O)Nc2ccc(SC(F)(F)F)cc2)c1 (stereo not given)	inactive
O=C(Nc1ccncc1[N+](=O)[O-])c1ccc([N+](=O)[O-])cc1[N+](=O)[O-]	inactive
CCc1ccc(OP(C)(=O)N2CCN(c3ccc([N+](=O)[O-])cc3)CC2)cc1 (stereo not given)	inactive
CP(=O)(NC(=O)Nc1ccccc1)Oc1ccccc1 (stereo not given)	inactive
O=C(COc1ccccc1)OC1CN2CCC1CC2 (stereo not given)	inactive
CP(=O)(Oc1ccccc1)OC(c1ccccc1)C(F)(F)F (stereo not given)	inactive
CP(=O)(Nc1ccc(SC(F)(F)F)cc1)Oc1ccc(Cl)cc1 (stereo not given)	inactive
Cc1cccc(C)c1OP(C)(=O)Nc1ccc(SC(F)(F)F)cc1 (stereo not given)	inactive
COP1(=S)c2c(C)nn(CCC#N)c2N=C(c2ccc(F)cc2)N1C (stereo not given)	inactive
CN(C(=O)Cc1ccc(Cl)c(Cl)c1)[C@@H]1CCCC[C@H]1N1CCCC1	inactive
CC(C)/C=N\N=C(\N)N[N+](=O)[O-]	inactive
CC1(CBr)Cn2c(nc3ccccc3c2=O)S1 (stereo not given)	inactive
O=[As](O)(c1ccccc1Br)c1ccccc1Br	inactive
O=[N+]([O-])c1cc([N+](=O)[O-])c(-c2cnn(-c3ccccc3)c2)c([N+](=O)[O-])c1	inactive
COc1ccccc1CNC(=O)COC(=O)C(O)(c1ccccc1)c1ccccc1	inactive

SMILES	outcome
CC(C)(C)C(=O)NC(Sc1ncccn1)C(Cl)(Cl)Cl (stereo not given)	inactive
Clc1n[nH]nc1-c1nn[nH][15n]1	inactive
CCOP(=O)(NC(=NC(C)c1ccccc1)NC(C)c1ccccc1)OCC (stereo not given)	inactive
O=[N+]([O-])c1cc([N+](=O)[O-])c(-n2nnc3ccccc32)c([N+](=O)[O-])c1	inactive
CCC1=CC2Cc3nc4ccc(Cl)cc4c(N)c3C(C1)C2 (stereo not given)	inactive
O=P1(Nc2ccccn2)COc2ccccc2OC1	inactive
CN(CCCl)Cc1cc(Cl)c(NC2=NCCN2)c(Cl)c1	inactive
CCOP(=O)(Nc1ccc(C)cn1)OCC	inactive
Nc1cccc([As](=O)(O)c2ccccc2)c1	inactive
CP(=O)(Nc1ccc(SC(F)(F)F)cc1)Oc1ccccc1 (stereo not given)	inactive
CCCOc1ccc(NP(C)(=O)Oc2ccc(Cl)cc2)cc1 (stereo not given)	inactive
O=P1(Nc2ccc(Br)cn2)COc2ccccc2OC1	inactive
O=[As](O)(c1cccs1)c1cccs1	inactive
Cc1ccc(OCC(=O)OC2CN3CCC2CC3)cc1 (stereo not given)	inactive
O=P1(Nc2ncccn2)COc2ccccc2OC1	inactive
CN1CCCCC1COC(=O)C1(O)c2ccccc2CCc2ccccc21 (stereo not given)	inactive
COc1ccccc1OP(C)(=O)Nc1c(C)cccc1C (stereo not given)	inactive
CCOC(=O)C(CC)C1=NC(C)(C)Cc2ccccc21.O=[N+]([O-])c1cc([N+](=O)[O-])c(O)c([N+](=O)[O-])c1 (stereo not given)	inactive
O=[N+]([O-])c1cc([N+](=O)[O-])c(Nc2nnnn2CCO)c([N+](=O)[O-])c1	inactive
CN(C)C1(CNC(=O)c2ccc(S(C)(=O)=O)cc2)CCCCC1	inactive
O=C(/C=C/c1ccccc1)OC1CN2CCC1CC2 (stereo not given)	inactive
Cc1ccc(C(=O)OC2CN3CCC2CC3)cc1 (stereo not given)	inactive
CC1CCC(C(C)C)C(OP(=O)(Nc2ccccn2)c2ccccc2)C1 (stereo not given)	inactive
Cc1nn(-c2ccccc2)c2c1P(=O)(N1CCOCC1)N(C)C(c1ccccc1)=N2 (stereo not given)	inactive

SMILES	outcome
COc1cc(C2NCCC3(OCCO3)C2(C)C)cc(OC)c1OC.O=[N+]([O-])c1cc([N+](=O)[O-])c(O)c([N+](=O)[O-])c1 (stereo not given)	inactive
CCOP1(=S)c2c(C)nn(CCC#N)c2N=C(c2ccc(F)cc2)N1C (stereo not given)	inactive
CN(C(=O)Cc1ccccc1)[C@@H]1CC[C@]2(CCCO2)C[C@H]1N1CCCC1	inactive
N#CCCN(C(=O)COC(=O)C(O)(c1ccccc1)c1ccccc1)c1ccc(F)cc1	inactive
CN(C(=O)Cc1ccc(Cl)c(Cl)c1)[C@H]1CC[C@@]2(CCCO2)C[C@@H]1N1CCCC1	inactive
CC1=NCCc2c1[nH]c1ccccc21.O=[N+]([O-])c1cc([N+](=O)[O-])c(O)c([N+](=O)[O-])c1	inactive
CN(C)C(=O)c1cc([N+](=O)[O-])cc2c1-c1c(cc([N+](=O)[O-])cc1[N+](=O)[O-])C2=O	inactive
O=[N+]([O-])c1ccc2c(c1)nnn2O	inactive
NC(=O)Nc1ccc([As](=O)(O)O)cc1	inactive
O=C(O)COc1ccc([As](=O)(O)O)cc1[N+](=O)[O-]	inactive
Nc1ccccc1[As](=O)(O)c1ccccc1	inactive
O=P(Nc1nccs1)(Oc1ccccc1)Oc1ccccc1	inactive
O=C(O)c1cccc(Nc2c([N+](=O)[O-])cc([N+](=O)[O-])cc2[N+](=O)[O-])c1	inactive
CCOP1(=S)c2c(C)nn(CCC#N)c2N=C(c2ccccc2F)N1C (stereo not given)	inactive
CS(=O)(=O)c1cc([N+](=O)[O-])c2no[n+]([O-])c2c1	inactive
CCOP(=O)(Nc1cccc2ccccc12)OCC	inactive
Nc1cccc2c([As](=O)(O)O)cccc12	inactive
Cc1ccc(NCCc2c([N+](=O)[O-])cc([N+](=O)[O-])cc2[N+](=O)[O-])cc1	inactive
CP(=O)(Nc1cccc(Br)c1)Oc1ccccc1 (stereo not given)	inactive
Cc1cc(C)cc(OP(C)(=O)Nc2ccccn2)c1 (stereo not given)	inactive
CCCOP(=S)(Nc1nc(N)cc(=O)[nH]1)OCCC	inactive
Cc1ccc(C)c(NP(C)(=O)Oc2ccccc2)c1 (stereo not given)	inactive

Source: PubChem BioAssay AID488922 (Johns Hopkins Ion Channel Center, 2010)
